Laboratory results reported in publication PMC5027283, “The oncometabolite 2-hydroxyglutarate activates the mTOR signalling pathway” (Nature Communications, 2016).

Biological target: T1, KDM4A (Homo sapiens, UniProt O75164)
T1 sequence (O75164 2-1064): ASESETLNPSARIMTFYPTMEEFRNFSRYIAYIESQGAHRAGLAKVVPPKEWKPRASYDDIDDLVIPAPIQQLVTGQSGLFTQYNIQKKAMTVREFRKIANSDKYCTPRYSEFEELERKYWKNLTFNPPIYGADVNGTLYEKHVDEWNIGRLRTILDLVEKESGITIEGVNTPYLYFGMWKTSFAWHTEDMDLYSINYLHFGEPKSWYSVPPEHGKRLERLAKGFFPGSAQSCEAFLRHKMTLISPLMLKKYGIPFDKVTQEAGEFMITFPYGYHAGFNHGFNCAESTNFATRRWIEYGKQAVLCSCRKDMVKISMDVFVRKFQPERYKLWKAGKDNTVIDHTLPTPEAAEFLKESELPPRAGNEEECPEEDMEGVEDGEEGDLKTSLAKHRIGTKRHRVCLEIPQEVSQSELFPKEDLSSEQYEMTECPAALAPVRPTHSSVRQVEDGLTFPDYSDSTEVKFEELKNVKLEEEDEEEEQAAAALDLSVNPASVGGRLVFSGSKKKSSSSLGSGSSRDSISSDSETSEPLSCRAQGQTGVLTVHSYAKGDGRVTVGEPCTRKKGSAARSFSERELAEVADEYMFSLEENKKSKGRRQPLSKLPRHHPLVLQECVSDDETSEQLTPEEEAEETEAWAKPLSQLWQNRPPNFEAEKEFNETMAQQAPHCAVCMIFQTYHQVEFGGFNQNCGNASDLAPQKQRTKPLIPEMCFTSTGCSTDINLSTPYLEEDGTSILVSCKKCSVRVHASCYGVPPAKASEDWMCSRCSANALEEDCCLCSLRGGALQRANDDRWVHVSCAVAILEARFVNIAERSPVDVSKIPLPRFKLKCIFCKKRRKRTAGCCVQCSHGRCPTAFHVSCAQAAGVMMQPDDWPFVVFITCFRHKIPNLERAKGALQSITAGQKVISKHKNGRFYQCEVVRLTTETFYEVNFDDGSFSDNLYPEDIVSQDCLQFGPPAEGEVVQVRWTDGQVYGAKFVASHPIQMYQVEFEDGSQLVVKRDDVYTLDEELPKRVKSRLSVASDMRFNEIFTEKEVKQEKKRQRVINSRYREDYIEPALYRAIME
Experiment: RapidFire mass spectrometry in vitro demethylation assay, recombinant human KDM4A, H3K9(me3) peptide
Type: biochemical

IC50: 2100 nM
Structure (SMILES): O=C(O)CC[C@@H](O)C(=O)O [R-2-hydroxyglutarate]
